The values that follow come from ChEMBL document CHEMBL5344485, “Discovery of CRN04894: A Novel Potent Selective MC2R Antagonist” (ACS Med Chem Lett, 2024).

Chains of the proteins cited; added tags and fusions are not shown. Lines headed by an entry give the natural chain unless they say otherwise; changes in a name come on top.
UniProt P28222, whole entry: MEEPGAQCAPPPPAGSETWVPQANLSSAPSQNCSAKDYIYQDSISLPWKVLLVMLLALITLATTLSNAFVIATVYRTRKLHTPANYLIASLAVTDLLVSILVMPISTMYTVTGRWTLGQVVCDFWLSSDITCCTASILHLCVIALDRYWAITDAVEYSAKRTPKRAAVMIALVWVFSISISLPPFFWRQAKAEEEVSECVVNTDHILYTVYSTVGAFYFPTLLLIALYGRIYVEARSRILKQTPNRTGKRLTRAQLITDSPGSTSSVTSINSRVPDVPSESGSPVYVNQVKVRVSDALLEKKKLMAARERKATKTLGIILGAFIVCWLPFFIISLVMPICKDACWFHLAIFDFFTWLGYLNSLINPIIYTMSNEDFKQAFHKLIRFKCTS
UniProt Q01718: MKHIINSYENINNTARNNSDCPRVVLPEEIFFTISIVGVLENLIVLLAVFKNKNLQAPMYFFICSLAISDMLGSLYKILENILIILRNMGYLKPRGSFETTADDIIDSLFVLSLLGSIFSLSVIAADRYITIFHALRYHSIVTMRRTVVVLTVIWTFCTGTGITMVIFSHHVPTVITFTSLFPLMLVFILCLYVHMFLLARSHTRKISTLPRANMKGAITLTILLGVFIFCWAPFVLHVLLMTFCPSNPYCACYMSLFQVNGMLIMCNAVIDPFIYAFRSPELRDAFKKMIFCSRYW
UniProt P32245, whole entry: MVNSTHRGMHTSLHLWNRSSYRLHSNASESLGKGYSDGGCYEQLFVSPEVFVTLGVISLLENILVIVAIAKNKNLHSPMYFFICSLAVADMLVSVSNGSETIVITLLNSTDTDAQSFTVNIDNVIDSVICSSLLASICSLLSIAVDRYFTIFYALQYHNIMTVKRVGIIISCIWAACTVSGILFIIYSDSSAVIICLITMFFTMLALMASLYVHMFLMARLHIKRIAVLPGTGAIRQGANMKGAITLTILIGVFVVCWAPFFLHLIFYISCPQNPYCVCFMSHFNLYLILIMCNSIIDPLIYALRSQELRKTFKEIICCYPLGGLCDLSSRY

In assay [1] the test system is CHO-K1. As to the kind of experiment: Antagonist activity at rat MC2R expressed in CHO-K1 cells membrane assessed as ACTH(1-24) stimulated cAMP accumulation by measuring fold change at 3 uM relative to ACTH stimulation. It counts as cell membranes. The settings on record: filed as antagonist. (In general: cAMP levels reflect the balance of adenylyl cyclase and phosphodiesterase activity.)

For assay [2], the system named is CHO-K1. As to the kind of experiment: Antagonist activity at rat MC2R expressed in CHO-K1 cells membrane assessed as cAMP accumulation preincubated for 30 mins followed by ACTH (1-24) addition and measured after 30 mins by HTRF based assay. The settings on record: filed as antagonist, time 60.0 min. It counts as cell membranes.
For assay [3], the target named is 5-hydroxytryptamine receptor 1B (Homo sapiens, UniProt P28222). The assay can be described thus: Inhibition of 5-HT1B (unknown origin) at 10 uM relative to control.
Assay [4] is filed under the species Homo sapiens. The assay can be described thus: Inhibition of sodium channel (unknown origin) at 10 uM relative to control.
Assay [5] is filed under the species Homo sapiens. The assay can be described thus: Selectivity ratio of IC50 for 5-HT1B (unknown origin) to IC50 for human MC2R.
Assay [6] concerns CHO-K1. The assay can be described thus: Antagonist activity at dog MC2R assessed as reduction in ACTH (1-24) stimulated cAMP accumulation. The format is cell membranes. The settings on record: Canis lupus familiaris, Membrane, filed as antagonist, time 30.0 min.
The subject of the next assay is Rattus norvegicus. The assay can be described thus: In vivo antagonist activity at MC2R in Sprague-Dawley rat assessed as reduction in ACTH-stimulated corticosterone secretion at 3 to 30 mg/kg, po administered as single dose and measured after 24 to 48 hrs by LC-MS/MS analysis. The settings on record: dose 3-30 mg/kg, time 24-48 hrs. The format is functional, organism-based.

In assay [7] the target is T1, Adrenocorticotropic hormone receptor (Homo sapiens, UniProt Q01718). The assay can be described thus: Antagonist activity at human MC2R expressed in CHO-K1 cells membrane assessed as ACTH(1-24) stimulated cAMP accumulation by measuring fold change at 10 uM relative to ACTH stimulation. The settings on record: filed as antagonist. It counts as functional, cell membranes.

The target of a further assay is Melanocortin receptor 4 (Homo sapiens, UniProt P32245). The assay can be described thus: Antagonist activity at human MC4R assessed as fold change at 10 uM. The format is cell membranes. The settings on record: Membrane, filed as antagonist.
Assay [8] concerns the target T1, Adrenocorticotropic hormone receptor. The assay can be described thus: Antagonist activity at MC2R (unknown origin). It counts as functional. The settings on record: filed as antagonist.

By Kb is commonly meant the equilibrium dissociation constant of an antagonist, usually derived from a functional assay. A word on the inhibition: it is the change of the read-out against control, counted positive when it falls.

Active and inactive are the calls of the source. The rule behind the calls is not given here. Some results are limits rather than exact numbers.

Turning to `CC[C@@H]1CN(C(=O)c2ccc(C(F)(F)F)cc2Cl)CCN1c1ccc(C(F)(F)F)cc1CNC[C@H](C)O`, in the assay on CHO-K1 [1], the fold change (FC) came out at 1.5. Besides, the antagonist dissociation constant (Kb) with CHO-K1 [2] worked out at 252 nM.

For the compound `CCOc1ccccc1-c1ccc(N2CCN(C(=O)C3(C(F)(F)F)CCC3)C[C@H]2CC)c(C(=O)N[C@@H]2CN3CCC2CC3)n1` [ATUMELNANT], the inhibition (in assay [3]; in the assay listed under Homo sapiens [4]) was more than 70% each time. The Ratio IC50 in the assay listed under Homo sapiens [5] was more than 2500. In addition, the Kb in the assay with CHO-K1 [6] was found to be 0.25 nM; in the assay with CHO-K1 [2], 0.23 nM. The outcome in the assay on Rattus norvegicus was inactive.

Consider `C[C@H]1CN(C(=O)c2ccc(C(F)(F)F)cc2Cl)CCN1c1ccc(C(F)(F)F)cc1CN`, for which the fold change (FC) in assay [7] was 0.6.

Regarding `CC[C@@H]1CN(C(=O)c2ccc(C(F)(F)F)cc2Cl)CCN1c1ccc(C(F)(F)F)cc1CN`, the fold change (FC) in assay [7] is 2.6; in the assay with CHO-K1 [1], 1; at Melanocortin receptor 4, 0.

For the compound `NCc1cc(C(F)(F)F)ccc1N1CCN(C(=O)c2ccc(Cl)cc2Cl)CC1`, in [8], the Kb came out at 490 nM.

For the compound `C[C@@H]1CN(C(=O)c2ccc(C(F)(F)F)cc2Cl)CCN1c1ccc(C(F)(F)F)cc1CN`, in assay [7], the fold change (FC) came out at 2.1.

For the compound `CC[C@@H]1CN(C(=O)c2ccc(C(F)(F)F)cc2Cl)CCN1c1ccc(C(F)(F)F)cc1C(=O)NCCN`, in the assay with CHO-K1 [2], the Kb was 78 nM.
